From US8609833B2, “Purine derivatives as adenosine A1 receptor agonists and methods of use thereof” (Inotek Pharmaceuticals Corporation, priority 2004, dated 2013) come the findings set out here.

By UniProt entry, the sequences of proteins in these tests, tags left out.
UniProt P30542, whole entry: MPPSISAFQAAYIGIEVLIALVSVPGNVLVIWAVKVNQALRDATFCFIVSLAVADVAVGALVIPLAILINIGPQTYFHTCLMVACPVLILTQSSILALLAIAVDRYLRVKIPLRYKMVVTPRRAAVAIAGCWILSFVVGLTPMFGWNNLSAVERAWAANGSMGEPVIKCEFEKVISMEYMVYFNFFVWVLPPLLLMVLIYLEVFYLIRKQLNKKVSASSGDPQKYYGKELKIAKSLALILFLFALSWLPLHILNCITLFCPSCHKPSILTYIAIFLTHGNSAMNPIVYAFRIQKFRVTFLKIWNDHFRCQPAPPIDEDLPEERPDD
UniProt P0DMS8, whole entry: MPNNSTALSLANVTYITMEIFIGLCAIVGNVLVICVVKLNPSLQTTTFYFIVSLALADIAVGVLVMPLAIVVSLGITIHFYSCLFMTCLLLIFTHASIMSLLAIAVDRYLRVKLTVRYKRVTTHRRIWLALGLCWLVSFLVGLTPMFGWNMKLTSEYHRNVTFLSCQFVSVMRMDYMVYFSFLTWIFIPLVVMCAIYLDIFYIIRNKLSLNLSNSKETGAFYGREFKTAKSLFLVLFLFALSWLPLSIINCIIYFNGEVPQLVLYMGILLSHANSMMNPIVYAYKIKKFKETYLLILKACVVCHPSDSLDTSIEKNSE

Each structure is given as a SMILES string.

A word on the Ki: it is a dissociation constant, usually derived from enzyme kinetics or from competition with a known ligand.

Assay [1] addresses human recombinant A1 adenosine receptor (Homo sapiens (Human), UniProt P30542). In words: Adenosine A1 receptor binding, displacement of [3H]CCPA. The conditions noted are these: versus human A2A and A3 receptors, Table 1; tested form: Na salt. (Displacement assays read how much labelled ligand stays bound in the presence of the test substance.)
In assay [2] the target is human recombinant A2A adenosine receptor (Homo sapiens (Human), UniProt P29274). Description: Adenosine A2A receptor binding, displacement of [3H]NECA. As to conditions: read-out: Ki(A2A); displacement of specific [3H]NECA binding, CHO cells; geometric mean; tested form: Na salt.
For assay [3], the target named is human recombinant A3 adenosine receptor (Homo sapiens (Human), UniProt P0DMS8). Description: Adenosine A3 receptor binding, displacement of [3H]NECA. The conditions noted are these: read-out: Ki(A3); displacement of specific [3H]NECA binding, HEK cells; geometric mean; tested form: Na salt.

Turning to `O=S(=O)(O)OC[C@H]1O[C@@H](n2cnc3c(NC4CCCC4)ncnc32)[C@H](O)[C@@H]1O`, in assay [1], the “selectivity for the adenosine A1 receptor” value is given as “selective for the adenosine A1 receptor”. Besides, the inhibition constant (Ki) in assay [2] came out at 9.11 µM; in assay [3] it was 1.02 µM.
